## AlphaSeq binding of Ab-14 heavy chain variants to a spike HR2 peptide

From the AlphaSeq antibody data of Li et al. 2023 (doi:10.1038/s41467-023-39022-2), copy in the FLAb collection.

Target peptide (SARS-CoV-2 spike, HR2 region): PDVDLGDISGINAS

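This is the validation round: designs drawn from the data on random variants, tested in the same kind of assay. Several design methods are mixed in this list. In AlphaSeq, yeast of one mating type display the scFv and yeast of the other type display the target. After mating in shaken culture at 30 °C for 16 h, diploids were selected and their barcode pairs sequenced. The ratio of observed to expected reads was calibrated, replicate by replicate, on BCL2-family standards whose Kd was known from biolayer interferometry. There are six technical replicates.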

Parent scFv Ab-14: VH joined to VL by three GGGGS repeats. Changes lie in the heavy chain CDRs alone.
VH: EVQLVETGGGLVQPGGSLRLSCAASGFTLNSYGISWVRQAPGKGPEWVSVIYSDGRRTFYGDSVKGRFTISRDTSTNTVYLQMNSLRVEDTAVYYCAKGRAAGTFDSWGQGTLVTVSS
VL: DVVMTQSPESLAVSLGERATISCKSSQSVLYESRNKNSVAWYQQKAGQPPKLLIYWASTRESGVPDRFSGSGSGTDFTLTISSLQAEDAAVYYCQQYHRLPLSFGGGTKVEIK

Each variant is given by its three heavy chain CDRs, as the data file delimits them; those of the parent are GFTLNSYGIS, VIYSDGRRTFYGDSVK, GRAAGTFDS.
Variants here have at most six changes.
Numbers give log10(Kd / nM), so 0 is 1 nM and 3 is 1 µM. Smaller is tighter.
A pair that was not seen in that replicate is written "nd"; this usually means weak binding, but a binder can also be missed.
Some sequences occur more than once in the pool; their replicates are listed entry by entry, parted by semicolons.

The variant GFTLNEYGIS / VIYADGRRTFYGDSVK / GRAAGTFDI gave -0.76, -0.68, -0.55, -1.11, -0.44, -0.35. With GITLNSYGIS / VIYSDGRRTFYGDSSK / DHAAGTFDS the result was nd, nd, nd, nd, nd, nd. With YFSLNEYGIS / VIYSDGRRTFYGDSVK / GRTAGTFDS the result was 0.28, 0.71, -0.24, -0.02, 0.58, 0.33. With GFDLMSYGIS / VIYADGRRTFYYDSVK / GREAGCFDS the result was nd, nd, nd, 1.72, nd, 1.86. The variant GFGLNSYGIS / VIYSDGRRTFYGDSVK / GRNAGTFDS showed 1.61, 1.36, 1.71, 1.49, 0.92, 2.39. For GFTLNKYGIS / VIYSDGRRTWYGDSVK / GRAGLTFDS, the assay gave nd, nd, nd, nd, nd, nd. The variant GFTLESYGIS / VIYSDGQRTFYADSVK / GRAAGTFDS gave 0.92, 0.47, 0.55, 0.73, 0.31, 0.88. The variant GFELNSYGIS / VIYADGRRTFYGDSVK / GQAAGTFDA showed 0.82, 0.53, 0.59, 0.47, 0.29, 0.73.

The variant GFELNSYGIS / VIYSDGWRTFYGDSVK / GRAALTFDS showed nd, nd, nd, nd, nd, nd. For GFTLESYGIS / VIYSDGRRTFYDDSVK / GQNAGTFDS, the assay gave 0.55, 0.52, 0.29, 1.08, 0.29, 0.35. With GFSLNSYGIS / VIYSDGRRTFYVDSVK / GRQAGTFDS the result was -0.09, 0.30, 0.72, 1.05, 0.50, 0.63. With GFTLNSYGIS / VIYSDGQRTFYADDVK / GRVAGTFDV the result was 0.03, 0.02, 0.26, -0.12, 0.07, 0.32. The variant GFTLNSYGIS / VIYSDGRRTFYGDSVR / GRAAGTFDS gave nd, nd, nd, nd, nd, nd. For GFGLNSYGIS / VIYSDGRRTFYVDSVK / GQTAGTFDS, the assay gave nd, nd, nd, nd, nd, 0.34. The variant GFELNSYGIS / VIYADGRRTFYGDSVK / GVAAGTFDS gave 0.52, 0.33, 0.31, 0.24, 0.07, 0.07. The variant GFNLNSYGIS / VIYSDGRRTFYADRVK / GRNAGTFDS gave nd, nd, 0.67, nd, 1.52, nd.

The variant GFTLNSYGIS / VIYADGRRTFYGDSVK / GRAEGTFDS showed nd, nd, 2.16, 2.61, nd, 3.15. The variant GFTLNSYGIS / VIYSDGRRTFYNDSTK / GRAAGTFDS gave nd, nd, nd, nd, nd, nd. For GFGLNSYGIS / VIYADGRRTFYGDSVK / GNAAGTFDS, the assay gave 0.24, 0.50, 0.21, 0.33, 0.25, 0.29. The variant GFTLNQYGIS / VIYSDGRRTFYSDSVK / GRAAVTFDK gave nd, nd, nd, nd, nd, nd. The variant GFWLNEYGIS / VIYSDGRRTFYGDSVK / GQTAGTFDS showed nd, 0.43, 0.91, 0.50, 1.06, nd. With GFTLNSYGIS / VIYSDGRRTFYSRSVK / GRAAGFFDS the result was nd, 2.24, nd, nd, nd, nd. With PFELNSYGIS / VIYSDGRRTFYADSVK / GRTAGTFDS the result was 1.42, 1.69, 1.05, 1.54, 0.75, 1.53. For GFSLNEYGIS / VIYSDGRRTFYQDSVK / GNAAGTFDS, the assay gave 0.47, -0.40, -0.41, -0.20, 0.04, 0.25.

With GFTLNSYGIS / VIYADGRRTFYGDSVK / GRAAGTFDV the result was -0.34, -0.27, 0.18, -0.36, -0.19, 0.07; nd, nd, nd, nd, nd, nd. The variant GFTLNEYGIS / VIYSDGRRTFYGDSVK / GRAAGTFAQ gave nd, nd, nd, nd, nd, nd. With GFGLNEYGIS / VIYSDGRRTFYDDSVK / GRTAGTFDS the result was 0.08, -0.06, -0.23, -0.16, -0.26, -0.23. The variant GFNLNSYGIS / VIYSDGRRTFYGDSVK / GNVAGTFDS showed 0.25, 0.50, 0.17, 0.26, -0.26, 0.07. With GFTLDSYGIS / VIYSDGRRTFYADSVK / GRVAGTFDK the result was 0.06, 0.38, 0.10, 0.59, 0.38, 0.26. For GLTANSYGIS / VIYADGRRTFYGDSVK / GRAAVTNKS, the assay gave nd, nd, nd, nd, nd, nd. For GFDLNSYGIS / VIYSDGRRTFYGDAVK / GRMAGTFDS, the assay gave 0.70, 0.15, 0.31, 0.40, 0.55, 0.28. The variant GFSLNSYGIS / VIYSDGRRTFYGDRVK / GRQAGTFDS gave 0.41, 2.43, 0.40, 1.50, 0.71, 1.46.

For GFTLNSYGIS / VIYSDGRRTFYDDSVK / GQAAGTFDD, the assay gave nd, nd, 2.16, 2.65, nd, nd. The variant KFTLMSYGIS / VIYSDGRRTFYGDSVK / GREAGTFDS gave nd, 2.28, nd, nd, 1.39, 1.40. For GFTLNDYGIS / VIYSDGMRTFYGDSVK / GRTAGTFDS, the assay gave 0.74, 0.25, 0.35, 0.46, 0.74, 0.87. The variant GKTLNSYGIS / VIYSDGRRTFYSDSVK / GQTAGTFDS gave 0.67, 0.76, 0.62, 0.38, 1.07, 0.21. The variant GFTLNSYGIS / VIYSDGRRTFYQDSVK / GKVAGTFDS showed nd, 3.52, 1.21, 0.61, nd, 0.99. With GFTLNSYGIS / VIYSDGKRTFYSDSVK / GQVAGTFDS the result was -0.39, -0.50, -0.35, -0.72, -0.18, 0.08. For GNTLNSYGIS / VIYSDGRRTFYTDSVK / GRTAGTFDS, the assay gave -0.38, 0.43, 0.89, 0.11, -0.32, 0.76. The variant GFTLNSYGIS / VIYSDGLRLFYGDSVK / GNAAGTFDS showed nd, nd, nd, nd, nd, nd.

The variant GFTLNEYGIT / VIYSDGRRTFYGDSVK / GRAAGTGDS showed nd, nd, nd, nd, nd, nd. The variant GFTLNDYGIS / VIYSDGRRTFYGDSVK / GKAAGTFDT showed 0.31, 0.34, 0.24, -0.16, 0.22, 0.29. The variant GFWLNDYGIS / VIYSDGRRTFYADSVK / GRAAGTFDK showed 0.72, 0.07, 0.08, 1.07, nd, -0.18. For GFCLNEYGWS / VIYSDGRRTFYGDSVK / GRAAGTFDS, the assay gave nd, nd, nd, 2.39, nd, nd. The variant GFTLNSYGIS / VIYSDGRRTFYKDSVK / GRAGGTFDS showed 2.71, 2.26, nd, 2.82, nd, nd. The variant GFGLNSYGIS / VIYSDGRRTFYADSVK / GRQAGTFDS gave -0.03, 0.37, 0.79, 0.05, 0.15, 0.95. For GFKLNSYGIS / VIYADGRRTFYGDSVK / GRAAGTFKS, the assay gave nd, nd, nd, nd, nd, nd. The variant KFNLNSYGIS / VIYSDGRRTFYGDSVK / GKNAGTFDS showed nd, nd, nd, nd, 3.02, nd.

The first 4 variants above that were never detected:

CDR-H1	CDR-H2	CDR-H3	replicates, log10 nM
GITLNSYGIS	VIYSDGRRTFYGDSSK	DHAAGTFDS	nd, nd, nd, nd, nd, nd
GFTLNKYGIS	VIYSDGRRTWYGDSVK	GRAGLTFDS	nd, nd, nd, nd, nd, nd
GFELNSYGIS	VIYSDGWRTFYGDSVK	GRAALTFDS	nd, nd, nd, nd, nd, nd
GFTLNSYGIS	VIYSDGRRTFYGDSVR	GRAAGTFDS	nd, nd, nd, nd, nd, nd

Of ten entries with the parent sequence, four were seen in most replicates (averages 0.34 to 2.37), three in one and three in none, so single entries are noisy.
Three control strains display no target. For all heavy chain designs, 1% of the pairings with them gave a signal, with a median of 2.08 and one signal in twenty below 0.84, so weak values seen in few replicates may be background.
The authors averaged sequences with at least three values out of six and counted those with two or fewer as poor binders.
Values of this round are not directly comparable with the first-round values of the same sequences.